{"sequences": {"note": "Amino acid sequences for entries named in this document (tags omitted). Residues count along the entry.", "UniProt P23219, 24-599": "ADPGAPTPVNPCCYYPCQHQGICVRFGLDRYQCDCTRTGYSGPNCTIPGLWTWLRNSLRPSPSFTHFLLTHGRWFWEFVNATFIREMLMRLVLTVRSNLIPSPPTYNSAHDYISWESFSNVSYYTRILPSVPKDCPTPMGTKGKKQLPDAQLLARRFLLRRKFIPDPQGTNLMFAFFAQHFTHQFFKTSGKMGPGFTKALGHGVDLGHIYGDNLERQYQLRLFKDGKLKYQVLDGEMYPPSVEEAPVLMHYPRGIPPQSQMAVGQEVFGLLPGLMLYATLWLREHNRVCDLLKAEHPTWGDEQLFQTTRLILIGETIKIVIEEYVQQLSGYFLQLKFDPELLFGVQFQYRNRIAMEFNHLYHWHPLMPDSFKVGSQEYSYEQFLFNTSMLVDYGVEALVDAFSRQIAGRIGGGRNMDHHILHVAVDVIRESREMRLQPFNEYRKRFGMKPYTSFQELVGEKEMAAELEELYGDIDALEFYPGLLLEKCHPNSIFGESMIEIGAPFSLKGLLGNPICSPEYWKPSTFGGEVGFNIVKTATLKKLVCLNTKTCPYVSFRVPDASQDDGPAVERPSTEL"}, "source": "patent US20090155395A1", "about": "(SAGITTARIUS LIFE SCIENCE CORP., priority 2007, published 2009)", "biological_target": "Human platelet COX I (Homo sapiens, UniProt P23219)", "assay": "COX I inhibition in human platelets (PGE2 EIA)", "data": [{"smiles": "O=C(O)c1cccnc1Nc1cccc(C(F)(F)F)c1", "note": "[Niflumic acid]", "values": [{"measurement": "IC50", "result": "> 10", "unit": "µM"}]}]}
